Laboratory results as given in US20230213525A1, “DETECTING MICROBIAL INFECTION IN WOUNDS” (QUALIZYME DIAGNOSTICS GMBH & CO KG, priority 2016, published 2023).

Assays:
[1] = biological target: T1, Elastase (Homo sapiens, UniProt P08246); test: Elastase based test, liquid system, sputum; type: biochemical; conditions: infected sputum samples A, B, C; 2 µL, 1.0 mM substrate, 10 minutes
T1 sequence (P08246 30-267): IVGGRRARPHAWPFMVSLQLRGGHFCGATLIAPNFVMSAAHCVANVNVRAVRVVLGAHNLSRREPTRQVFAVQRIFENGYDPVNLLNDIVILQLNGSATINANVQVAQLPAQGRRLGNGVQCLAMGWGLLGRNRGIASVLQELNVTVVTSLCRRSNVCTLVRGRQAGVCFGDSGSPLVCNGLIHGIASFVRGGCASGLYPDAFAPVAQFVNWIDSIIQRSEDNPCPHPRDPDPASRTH
Procedure: This mixture is incubated at room temperature for 5 minutes.

[2] = biological target: T1, Elastase; test: Elastase based test, cellulose paper based system, sputum; conditions: Whatman filter paper, 10 minutes

For “N-methoxysuccinyl-ala-ala-pro-val-p-nitroanilide”, the Test response [1] was “yellow”, the Test response ([2]; infected sputum samples A, B) was “yellow” and the Test response ([2]; non infected sputum samples C, D) was “No colour change”.
